Patent US20060094722A1 (Eisai Co., Ltd., priority 2002, published 2006)
Where a name gives a salt, the structure may show the parent alone.

Protein sequences, listed by entry. Tags and fused reporters are not part of them. Lines headed by an entry give the natural chain unless they say otherwise; changes in a name come on top.
UniProt P22411: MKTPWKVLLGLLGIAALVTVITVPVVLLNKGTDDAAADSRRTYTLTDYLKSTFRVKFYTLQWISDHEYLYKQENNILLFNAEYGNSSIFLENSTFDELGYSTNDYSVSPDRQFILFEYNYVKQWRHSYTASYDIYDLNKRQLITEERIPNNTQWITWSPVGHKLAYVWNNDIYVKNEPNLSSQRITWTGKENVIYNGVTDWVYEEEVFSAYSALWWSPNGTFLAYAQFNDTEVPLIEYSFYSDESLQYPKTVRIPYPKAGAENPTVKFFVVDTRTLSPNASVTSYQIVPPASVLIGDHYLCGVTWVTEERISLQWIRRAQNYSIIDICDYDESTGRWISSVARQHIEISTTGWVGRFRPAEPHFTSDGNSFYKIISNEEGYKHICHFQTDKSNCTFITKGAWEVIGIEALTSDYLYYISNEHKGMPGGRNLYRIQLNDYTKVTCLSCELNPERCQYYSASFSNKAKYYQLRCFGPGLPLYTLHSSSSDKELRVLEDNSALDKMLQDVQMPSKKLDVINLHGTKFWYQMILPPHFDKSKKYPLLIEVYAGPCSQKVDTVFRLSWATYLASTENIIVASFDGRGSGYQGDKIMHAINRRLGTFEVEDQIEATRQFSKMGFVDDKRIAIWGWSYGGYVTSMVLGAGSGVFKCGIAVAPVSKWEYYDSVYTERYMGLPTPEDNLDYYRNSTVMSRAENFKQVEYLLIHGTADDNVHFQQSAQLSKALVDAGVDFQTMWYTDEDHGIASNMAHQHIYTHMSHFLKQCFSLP

Target: T1, DPPIV obtained from swine kidney (Sus scrofa, UniProt P22411)
T1 construct: DPPIV obtained from swine kidney; from tissue; host or cells: swine kidney
Experiment: Assay for the DPPIV-inhibiting activity
Type: biochemical
Conditions: DPPIV 10 mU/mL; Gly-Pro-p-nitroanilide 0.33 mM; absorbance 405 nm; read-out: IC50
Procedure: DPPIV obtained from swine kidney was dissolved in a reaction buffer (50 mM Tris-HCl (pH 7.4)/0.1% BSA) at a fmal concentration of 10 mU/mL. A 110 μL aliquot of this enzyme solution was added to the reaction system, and then 15 μL of an agent was added. The reaction solution was incubated at room temperature for 20 minutes. 25 μL of a solution containing 2 mM Gly-Pro-p-nitroanilide was added to the reaction solution (at the final concentration of 0.33 mM) to start the enzyme reaction. The reaction time was 20 minutes. 25 μL of 1N phosphate solution was added to stop the reaction. […] The degree of inhibition to the enzyme reaction was determined, and IC50 was computed based on the absorbance.

Going from `CCOC(=O)COc1nc2nc(N3CCNCC3)n(-c3ccccc3Cl)c2c(=O)n1C` [Example 1, Ethyl[7-(2-chlorophenyl)-1-methyl-6-oxo-8-(piperazin-1-yl)-6,7-dihydro-1H-purin-2-yloxy]acetate trifluoroacetate] to `CC#CCn1c(N2CCNCC2)nc2nc(Oc3ccccc3)n(C)c(=O)c21` [Example 20, 7-(2-Butynyl)-1-methyl-2-phenoxy-8-(piperazin-1-yl)-1,7-dihydropurin-6-one trifluoroacetate], the IC50 falls from 287 nM to 152 nM (1.9-fold).

Going from `CC#CCn1c(N2CCNCC2)nc2nc(OC3CCCC3)n(C)c(=O)c21` [Example 7, 7-(2-Butynyl)-2-cyclopentyloxy-1-methyl-8-(piperazin-1-yl)-1,7-dihydropurin-6-one trifluoroacetate] to `CC#CCn1c(N2CCNCC2)nc2nc(C)n(C)c(=O)c21` [Example 22, 7-(2-Butynyl)-1,2-dimethyl-8-(piperazin-1-yl)-1,7-dihydropurin-6-one trifluoroacetate], the IC50 falls from 401 nM to 17 nM (24-fold).

Compared with `CC#CCn1c(N2CCNCC2)nc2nc(N(C)C)n(C)c(=O)c21` [Example 29, 7-(2-Butynyl)-1-methyl-2-dimethylamino-8-(piperazin-1-yl)-1,7-dihydropurin-6-one trifluoroacetate], `CC#CCn1c(N2CCNCC2)nc2nc(SC(C)C)n(C)c(=O)c21` [Example 76, 7-(2-Butynyl)-2-isopropylsulfanyl-1-methyl-8-(piperazin-1-yl)-1,7-dihydropurin-6-one trifluoroacetate] is 3.6-fold lower in IC50: 310 nM for the first, 86.5 nM for the second. The second is the more potent here.

Going from `CC#CCn1c(N2CCNCC2)nc2nc(N3CCC[C@H]3C(=O)O)n(C)c(=O)c21` [Example 53, (S)-1-[7-(2-Butynyl)-1-methyl-6-oxo-8-(piperazin-1-yl)-6,7-dihydro-1H-purin-2-yl]pyrrolidine-2-carboxylic acid trifluoroacetate] to `CC#CCn1c(N2CCNCC2)nc2nc(NC(C)C(=O)O)n(C)c(=O)c21` (stereo not shown) [Example 64, 2-[7-(2-Butynyl)-1-methyl-6-oxo-8-(piperazin-1-yl)-6,7-dihydro-1H-purin-2-ylamino]propionic acid trifluoroacetate], the IC50 rises from 46.9 nM to 126 nM (2.7-fold).

Going from `CC#CCn1c(N2CCNCC2)nc2nc(Sc3ccccn3)n(C)c(=O)c21` [Example 73, 7-(2-Butynyl)-1-methyl-8-(piperazin-1-yl)-2-(pyridin-2-ylsulfanyl)-1,7-dihydropurin-6-one trifluoroacetate] to `CC#CCn1c(N2CCNCC2)nc2nc(Sc3nccs3)n(C)c(=O)c21` [Example 142, 7-(2-Butynyl)-1-methyl-8-(piperazin-1-yl)-2-(thiazol-2-ylsulfanyl)-1,7-dihydropurin-6-one trifluoroacetate], the IC50 rises from 33.4 nM to 68.5 nM (2.1-fold). The first is the more potent here.

Compared with `CC#CCn1c(N2CCNCC2)nc2nc(C#N)n(C)c(=O)c21.O=C(O)C(F)(F)F` [Example 82, 7-(2-Butynyl)-2-cyano-1-methyl-8-(piperazin-1-yl)-1,7-dihydropurin-6-one trifluoroacetate], `CC#CCn1c(N2CCNCC2)nc2cnn(Cc3ccccc3C#N)c(=O)c21.O=C(O)C(F)(F)F` [Example 267, 2-[3-(2-Butynyl)-4-oxo-2-(piperazin-1-yl)-3,4-dihydroimidazo[4,5-d]pyridazin-5-ylmethyl]benzonitrile trifluoroacetate] is 22-fold lower in IC50: 161 nM for the first, 7.22 nM for the second.

Going from `CC#CCn1c(N2CCCC(N)C2)nc2cnn(C)c(=O)c21.O=C(O)C(F)(F)F` (stereo not shown) [Example 120, 2-(3-Aminopiperidin-1-yl)-3-(2-butynyl)-5-methyl-3,5-dihydroimidazo[4,5-d]pyridazin-4-one trifluoroacetate] to `CC#CCn1c(N2CCCC(N)C2)nc2nc(Oc3ccccc3C(N)=O)n(C)c(=O)c21` (stereo not shown) [Example 248, 2-[8-(3-Aminopiperidin-1-yl)-7-(2-butynyl)-1-methyl-6-oxo-6,7-dihydro-1H-purin-2-yloxy]benzamide trifluoroacetate], the IC50 falls from 116 nM to 6.4 nM (18-fold). The second is the more potent here.

First: CC#CCn1c(N2CCNCC2)nc2nc(SC(C)c3cccs3)n(C)c(=O)c21 (stereo not shown) [Example 146, 7-(2-Butynyl)-1-methyl-8-(piperazin-1-yl)-2-[1-(thiophen-2-yl)ethylsulfanyl]-1,7-dihydropurin-6-one trifluoroacetate]
Second: CC#CCn1c(N2CCNCC2)nc2nc(Sc3nc(C)cs3)n(C)c(=O)c21 [Example 159, 7-(2-Butynyl)-1-methyl-2-(4-methylthiazol-2-ylsulfanyl)-8-(piperazin-1-yl)-1,7-dihydropurin-6-one trifluoroacetate]
The IC50 of the first is 2.2-fold higher: 81.7 nM for the first, 37.7 nM for the second. The second is the more potent here.

Compared with `CC#CCn1c(N2CCNCC2)nc2nc(Oc3cccnc3C(N)=O)n(Cc3ccccc3C#N)c(=O)c21` [Example 230, 3-[7-(2-Butynyl)-1-(2-cyanobenzyl)-6-oxo-8-(piperazin-1-yl)-6,7-dihydro-1H-purine-2-yloxy]pyridine-2-carboxylic amide trifluoroacetate], `CC#CCn1c(N2CCNCC2)nc2nc(Oc3ccccc3C(N)=O)n(Cc3ccccc3C#N)c(=O)c21` [Example 234, 2-[7-(2-Butynyl)-1-(2-cyanobenzyl)-6-oxo-8-(piperazin-1-yl)-6,7-dihydro-1H-purin-2-yloxy]benzamide trifluoroacetate] is 2-fold higher in IC50: 0.89 nM for the first, 1.74 nM for the second. The first is the more potent here.

First: CC#CCn1c(N2CCNCC2)nc2cnn(CC(=O)c3cccc(OC)c3)c(=O)c21 [Example 266, 3-(2-Butynyl)-5-[2-(3-methoxyphenyl)-2-oxoethyl]-2-(piperazin-1-yl)-3,5-dihydroimidazo[4,5-d]pyridazin4-one trifluoroacetate]
Second: CC#CCn1c(N2CCNCC2)nc2cnn(Cc3c(F)cccc3C#N)c(=O)c21 [Example 297, 2-[3-(2-Butynyl)-4-oxo-2-(piperazin-1-yl)-3,4-dihydroimidazo[4,5-d]pyridazin-5-ylmethyl]-3-fluorobenzonitrile trifluoroacetate]
The IC50 of the first is 5.4-fold lower: 1.15 nM for the first, 6.22 nM for the second.

Same assay, conditions: IC50 (nM), DPPIV 10 mU/mL; Gly-Pro-p-nitroanilide 0.33 mM; absorbance 405 nm

`CC#CCn1c(N2CCNCC2)nc2nc(OC)n(CCc3ccccc3)c(=O)c21` [Example 86, 7-(2-Butynyl)-2-methoxy-1-(2-phenylethyl)-8-(piperazin-1-yl)-1,7-dihydropurin-6-one hydrochloride] and `CC#CCn1c(N2CCNCC2)nc2nc(SCC(=O)OC)n(CCc3ccccc3)c(=O)c21` [Example 88, Methyl[7-(2-butynyl)-6-oxo-1-(2-phenylethyl)-8-(piperazin-1-yl)-6,7-dihydro-1H-purin-2-ylsulfanyl]acetate hydrochloride] are within 1.5-fold of each other in IC50: 4.08 nM for the first, 2.89 nM for the second.

`CC#CCn1c(N2CCNCC2)nc2nc(OC)n(Cc3ccccc3C#N)c(=O)c21` [Example 98, 2-[7-(2-Butynyl)-2-methoxy-6-oxo-8-(piperazin-1-yl)-6,7-dihydropurin-1-ylmethyl]benzonitrile hydrochloride] and `CC#CCn1c(N2CCNCC2)nc2nc(C#N)n(Cc3ccccc3C#N)c(=O)c21.Cl` [Example 229, 7-(2-Butynyl)-1-(2-cyanobenzyl)-6-oxo-8-(piperazin-1-yl)-6,7-dihydro-1H-purine-2-carbonitrile hydrochloride] are within 1.5-fold of each other in IC50: 9.69 nM for the first, 8.97 nM for the second.

In the case of `CC#CCn1c(N2CCCC(N)C2)nc2nc(OC)n(Cc3ccccc3C#N)c(=O)c21` (stereo not shown) [Example 243, 2-[8-(3-Aminopiperidin-1-yl)-7-(2-butynyl)-2-methoxy-6-oxo-6,7-dihydropurin-1-ylmethyl]benzonitrile hydrochloride], the IC50 is reported as 2.15 nM.
